Test results reported in ChEMBL document CHEMBL5678809, “Preclinical characterization of GLPG0634, a selective inhibitor of JAK1, for the treatment of inflammatory diseases” (J Immunol, 2013).

The chains behind the UniProt entries cited, without tags or fusion partners. Where a name states a change or a piece, a line headed by the entry shows the natural chain unless it says otherwise.
UniProt O60674: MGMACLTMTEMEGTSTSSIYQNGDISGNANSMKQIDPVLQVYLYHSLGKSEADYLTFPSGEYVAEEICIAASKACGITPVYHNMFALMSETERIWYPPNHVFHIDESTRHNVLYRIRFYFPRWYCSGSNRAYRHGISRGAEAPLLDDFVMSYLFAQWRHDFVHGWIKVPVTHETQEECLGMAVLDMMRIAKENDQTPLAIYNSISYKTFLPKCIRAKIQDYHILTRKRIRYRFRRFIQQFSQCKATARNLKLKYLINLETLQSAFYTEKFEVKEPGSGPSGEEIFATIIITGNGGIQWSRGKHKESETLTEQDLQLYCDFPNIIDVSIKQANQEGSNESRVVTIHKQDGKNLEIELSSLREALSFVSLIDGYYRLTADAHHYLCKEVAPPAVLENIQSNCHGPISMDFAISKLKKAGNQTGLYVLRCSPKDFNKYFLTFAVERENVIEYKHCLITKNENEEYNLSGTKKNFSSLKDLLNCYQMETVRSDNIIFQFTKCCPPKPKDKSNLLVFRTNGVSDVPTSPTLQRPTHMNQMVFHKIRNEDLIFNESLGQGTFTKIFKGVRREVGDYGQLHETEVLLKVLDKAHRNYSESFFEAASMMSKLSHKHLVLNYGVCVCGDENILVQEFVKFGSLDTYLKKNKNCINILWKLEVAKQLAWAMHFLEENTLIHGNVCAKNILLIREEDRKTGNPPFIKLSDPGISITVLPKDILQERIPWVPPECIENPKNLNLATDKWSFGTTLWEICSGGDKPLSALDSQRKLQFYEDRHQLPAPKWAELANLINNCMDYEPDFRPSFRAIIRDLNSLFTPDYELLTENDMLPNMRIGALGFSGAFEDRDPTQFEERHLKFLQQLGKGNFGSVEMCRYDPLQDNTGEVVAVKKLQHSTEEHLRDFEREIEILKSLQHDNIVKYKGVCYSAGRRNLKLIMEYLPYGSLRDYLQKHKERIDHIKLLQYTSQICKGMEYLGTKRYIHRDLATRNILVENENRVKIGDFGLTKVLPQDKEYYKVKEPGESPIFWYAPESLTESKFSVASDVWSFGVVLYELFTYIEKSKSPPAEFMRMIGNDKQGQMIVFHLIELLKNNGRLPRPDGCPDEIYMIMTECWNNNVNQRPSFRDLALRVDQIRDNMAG

Target: Tyrosine-protein kinase JAK2 (Homo sapiens, UniProt O60674)
Type: tissue-based, Blood, T-cell

Compound `CCS(=O)(=O)N1CC(CC#N)(n2cc(-c3ncnc4[nH]ccc34)cn2)C1` [BARICITINIB] has an IC50 (read-out: IC50) of 63.8 nM and an IC50 (read-out: pIC50 (converted)) of 63.8 nM.
